Test: Diluents lowering the melting point of pelargonic acid: visual appearance (crystal/clear) of pelargonic acid/diluent blends at low temperature
[1] = pelargonic acid 30 wt % + diluent 70 wt %
[2] = pelargonic acid 50 wt % + diluent 50 wt %
[3] = pelargonic acid 65 wt % + diluent 35 wt %
[4] = pelargonic acid 70 wt % + diluent 30 wt %
[5] = pelargonic acid 75 wt % + diluent 25 wt %
[6] = pelargonic acid 80 wt % + diluent 20 wt %, printed in the 0° C. column

CCCCOP(=O)(OCCCC)OCCCC
diluent amount required to lower the melting point of pelargonic acid to 0° C. (or lower): 35% | appearance at 0° C. [1]: Clear | appearance at −20° C. [1]: Clear | appearance at 0° C. [2]: Clear | appearance at −20° C. [2]: Crystal | appearance at 0° C. [3]: Clear | appearance at −20° C. [3]: Crystal | appearance at 0° C. [4]: Crystal | appearance at −20° C. [4]: Crystal | appearance at 0° C. [5]: Crystal | appearance at −20° C. [5]: Crystal | appearance at −20° C. (pelargonic acid 80 wt % + diluent 20 wt %): Crystal | appearance at 5° C. [6]: Crystal at 5 °C | appearance at 10° C. [6]: clear at 10 °C
